Laboratory results as given in patent publication US20080089860A1, “Therapeutic compositions and methods useful in treating cancer” (priority 2006, published 2008).

Tests used:
TF-1 cells = experiment: TF-1 cell proliferation assay; format: cell-based, human; conditions: IFN-alpha with or without sodium stibogluconate 50 μg/ml
Method: The murine hematopoietic cell line Baf3 was maintained in RPMI 1640 medium supplemented with 10% fetal calf serum (FCS) and murine IL-3 (20 units/ml) as described previously in Damen et al., J. Biol. Chem. 270, 23402 (1995). Human myeloid cell line TF-1 was maintained in RPMI 1640 supplemented with 10% FCS and 40 ng/ml of recombinant human GM-CSF as described previously in Thomassen et al., Clin. Immunol. 95, 85 (2000). For cell proliferation assays, cells were washed in 10% FCS medium twice, resuspended in 10% FCS medium, incubated at 37° C. for 16 hours, and then cultured at 37° C. in 10% FCS medium containing various amounts of cytokines, sodium stibogluconate, or potassium antimonyl tartrate for 3-6 days as indicated. The cell numbers in proliferation assays were determined by an MTT assay or by microscopic cell counting as indicated.

[1] = tested on: DU145 human prostate carcinoma xenografts; experiment: DU145 xenografts (s.c.) in nude mice, SSG and SSG/IFNα2; format: in vivo
Description: Sodium stibogluconate (SSG) eradicated WM9 human melanoma xenografts in mice in synergy with IFNα2 and is currently in Phase I clinical trial. SSG was also found to inhibit murine Renca tumor growth via an immune mechanism independent of direct growth inhibition. […] Histologic evaluation of the inoculation sites identified multiple micro tumors in mice treated with SSG (˜4/site) or SSG/IFN[…]2 (˜2/site) in contrast to the single large tumors in the control or IFNα2-treated mice. […] Consistent with the pre-existence of an SSG-resistant subpopulation, DU145 cells but not WM9 cells cultured in the presence of SSG formed colonies with ˜4% frequency.

DR cells = experiment: DR lymphoma cell growth, MTT assay; format: cell-based, human
Method: (§1) For cell proliferation assays, cells were grown in 10% FCS culture medium containing various amounts of IFNs and/or sodium stibogluconate in 96 well plates and cultured at 37° C. for 3 or 6 days as indicated. The numbers of viable cells in proliferation assays were determined by MTT assays as described in Phatak et al., J. Immunol. 167, 3391 (2001).

DS cells = experiment: DS lymphoma cell growth, MTT assay; format: cell-based, human; conditions: day 3; IFN-alpha 1,000 u/ml
Method: as §1

WM9 cells [2] = experiment: WM9 melanoma cell growth, MTT assay; format: cell-based, human; conditions: the drug at 25-100 μg/ml and IFN-alpha, individually or in combination
Method: as §1
Dose response curves were generated for each drug alone, and also the combinations. Median effect plots were generated for IFNs alone, sodium stibogluconate alone, and the combination. The combination index (CI) was determined and plotted vs. fraction affected (FA). Data were analyzed in both modes, mutually exclusive and mutually nonexclusive. The interaction between two mutually nonexclusive drugs is described by the Equation CI=D1/Dx1+D2/Dx2+D1D2/Dx1Dx2, where Dx1 and Dx2 are the doses of drug 1 and drug 2 that are required to inhibit growth x %. […] When CI<1, drugs are synergistic, when CI=1, drugs are additive, and when CI>1, drugs are antagonistic. […]

MDA231 cells = experiment: MDA231 breast cancer cell growth, MTT assay; format: cell-based, human; conditions: the drug at 25 μg/ml and IFN-alpha, individually or combined
Method: as §1

U266 cells = experiment: U266 apoptosis, Annexin V/propidium iodide; format: cell-based, human; conditions: 3 days; sodium stibogluconate 100 μg/ml, IFN-alpha 1000 units/ml; untreated 8%
Method: (§2) Annexin V staining of exposed membrane phospholipid phosphatidylserine (PS) was done using the Annexin V assay kit (Pharmingen, San Diego, Calif.). Briefly, U266 or WM9 cells were cultured in the 10% FCS RPMI 1640 medium in the absence or presence of sodium stibogluconate, IFN-alpha or both for 3 days. Cells were then washed in PBS twice and stained in binding buffer (10 mM Hepes, pH 7.4; 140 mM NaCl; 2.5 mM CaCl2) containing Annexin V-FITC and propidium iodide for 15 min. The reaction was stopped by adding 10 volumes of binding buffer and analyzed by FACS (Becton Dickinson Facsvantage) or fluorescent microscopy.

WM9 cells [3] = experiment: WM9 apoptosis, fluorescent microscopy; format: cell-based, human; conditions: control 5%
Method: as §2

WM9 xenografts = experiment: WM9 melanoma xenografts in nude mice; format: in vivo; conditions: day 25; sodium stibogluconate 12 mg Sb s.c. daily, IFN-alpha 500,000 U s.c. daily
Method: Nude mice bearing WM9 or DU145 xenografts were treated with IFN-alpha (500,000 U, s.c., daily), sodium stibogluconate (12 mg Sb, s.c., daily) or both. […] The dosage of sodium stibogluconate corresponds to approximately 440 mg Sb/kg body weight (average mouse body weight 27 g), substantially higher than the standard therapeutic dose of 20 mg Sb/kg and the high dose (143 mg Sb/kg) that was clinically used by accident without serious toxicity. This dose of sodium stibogluconate was based on a previous observation in a pilot study that mice could tolerate daily dose of 20 mg Sb (approximately 700-800 mg Sb/kg). […]
For each of the cell lines, each of 16 mice received subcutaneous injection at the chest area of 3×10^6 cells/site (WM9) or 2×10^6 cells/site (DU145), two sites/mouse, on day 0. […] Tumor size was measured with a caliper to determine the two perpendicular diameters of each tumor. Tumor volume was calculated using the method of the NCI (length×width 2 in millimeters/2=volume in cubic millimeters).
To test the anti-tumor effects of sodium stibogluconate and its synergy with IFN-alpha in vivo, the effect of sodium stibogluconate, IFN-alpha and their combination against xenografts of human WM9 melanoma in nude mice was determined. […] Tumor volume of WM9 xenografts in the mice was determined during the treatment course as indicators of efficacy of the treatment (FIG. 22A).

DU145 xenografts = DU145 xenografts in nude mice, sodium stibogluconate and IFN-alpha; format: in vivo; conditions: day 25; sodium stibogluconate 12 mg Sb s.c. daily, IFN-alpha 500,000 U s.c. daily
Method: (§3) Nude mice bearing WM9 or DU145 xenografts were treated with IFN-alpha (500,000 U, s.c., daily), sodium stibogluconate (12 mg Sb, s.c., daily) or both. […] The dosage of sodium stibogluconate corresponds to approximately 440 mg Sb/kg body weight (average mouse body weight 27 g), substantially higher than the standard therapeutic dose of 20 mg Sb/kg and the high dose (143 mg Sb/kg) that was clinically used by accident without serious toxicity. This dose of sodium stibogluconate was based on a previous observation in a pilot study that mice could tolerate daily dose of 20 mg Sb (approximately 700-800 mg Sb/kg). […] In light of the relatively rapid rate of clearance of the drug in vivo, 440 mg Sb/kg dosage was used to ensure the detection of the effectiveness of the drug for this initial study.
For each of the cell lines, each of 16 mice received subcutaneous injection at the chest area of 3×10^6 cells/site (WM9) or 2×10^6 cells/site (DU145), two sites/mouse, on day 0. Mice were separated into four groups of four to receive treatment, injected into the thigh area starting on day 2. Tumor size was measured with a caliper to determine the two perpendicular diameters of each tumor. Tumor volume was calculated using the method of the NCI (length×width 2 in millimeters/2=volume in cubic millimeters).

[4] = Toxicity in nude mice (viability, body weight); format: in vivo; conditions: day 25
Method: as §3
As discussed above, the dosage of sodium stibogluconate used for the treatment of nude mice was 12 mg Sb/mouse, s.c., daily (or approximately 440 mg/kg body weight). This dosage is much higher than the standard dose for leishmaniasis (20 mg Sb/kg, daily). As an initial step to assess the toxicity of such a high dosage of sodium stibogluconate in nude mice, the effect of sodium stibogluconate on the viability and body weights of WM9 xenografts nude mice during the 25 day period of the study was determined.

Renca tumors = Renca tumors in Balb/c mice; format: in vivo; conditions: two weeks; SSG 12 mg daily i.m., IL-2 105 IU daily i.p.
Method: Balb/c and athymic nude Balb/c mice (10 weeks old, female, Taconic Farms, Germantown, N.Y.) were inoculated (s.c.) at the flanks with Renca cells (10^6 cells/site). Four days post-inoculation, the mice were subject to no treatment (Control) or treatment with IL-2 ([…]/daily for 5 days, i.p.), SSG (12 mg/daily, i.m. at hip regions) or the combination of the two agents for two weeks. […] The dose of SSG was similar to the effective daily dose of the drug for the treatment of murine leishmaniasis (Murray, H. W., J. D. Berman, and S. D. Wright. 1988. Immunochemotherapy for intracellular Leishmania donovani infection: gamma interferon plus pentavalent antimony. J Infect Dis 157:973). Tumor volume was measured during the study period and calculated using the formula for a prolate spheroid (V=4/3×a2b) (Lindner, D. J., E. C. Borden, and D. V. Kalvakolanu. 1997. Synergistic antitumor effects of a combination of interferons and retinoic acid on human tumor cells in vitro and in vivo. Clin Cancer Res 3:931). Student's t test was used for assessing the significance of tumor volume differences among differential treatment groups. Mouse viability (daily) and body weights (weekly) were also recorded during the study period. At the end of the study, Renca tumors and major internal organs (heart, kidney, liver, lung and spleen) were harvested for histology and immunohistochemistry analysis.

[5] = tested on: tumor-infiltrating and spleen macrophages (F4/80+), T and NK cells; experiment: Immunohistochemistry of Renca tumors and spleen, Balb/c mice; format: in vivo; conditions: Renca tumors
Method: Major internal organs and Renca tumors harvested from mice were fixed in 10% formalin or snap frozen in liquid nitrogen. H & E-stained tissue sections of the fixed samples were prepared and evaluated by microscopy as described previously (Yi, T., M. K. Pathak, D. J. Lindner, M. E. Ketterer, C. Farver, and E. C. Borden. 2002. Anticancer activity of sodium stibogluconate in synergy with IFNs. J Immunol 169:5978). Preparation of frozen tissue sections and immunohistochemistry were performed following established procedures (Joliat, M. J., P. A. Lang, B. L. Lyons, L. Burzenski, M. A. Lynes, T. Yi, J. P. Sundberg, and L. D.
Shultz. 2002. Absence of CD5 dramatically reduces progression of pulmonary inflammatory lesions in SHP-1 protein-tyrosine phosphatase-deficient ‘viable motheaten’ mice. J Autoimmun 18:105). The antibodies used for immunohistochemistry were anti-CD4 (rat mAb, clone GK1.5, BD Biosciences, Franklin Lakes, N.J.), anti-CD8 (rat mAb, clone 53-6.7.5, BD Biosciences, Franklin Lakes, N.J.), anti-F4/80 (rat mAb, clone A3-1, Serotec, Oxford, UK) and anti-Asialo GM1 (rabbit polyclonal, Cedarlane, Hornby, Canada). […] Tissue sections of 2 mice/group were evaluated. The number of immune cells was semi-quantified based on the following scheme: […], 0-1 positive cells/40×field; +, 2-5 positive cells/40×field; ++, 6-10 positive cells/40×field, etc.

advanced RCC = conditions: human, in vivo; cited from earlier work

Row | Substance | GM-CSF-induced proliferation of TF-1 cells (TF-1 cells) | DU145 tumor growth inhibition [1] [%] | growth inhibition of DR cells (DR cells; day 3, IFN-alpha alone or with various amounts of sodium stibogluconate) [%] | growth inhibition of DR cells (DR cells; day 6, IFN-alpha alone) [%] | activity against DS cells (DS cells) | growth inhibition of WM-9 melanoma cells (WM9 cells [2]) [%] | growth inhibition of MDA231 breast cancer cells (MDA231 cells) [%] | percentage of apoptotic U266 cells (U266 cells) [%] | apoptotic WM9 cells (WM9 cells [3]) [%] | WM9 tumor volume relative to control group (WM9 xenografts) | DU145 average tumor volume relative to control (DU145 xenografts) | survival of WM9-inoculated nude mice [4] | Renca tumor growth inhibition (Renca tumors) | increase of tumor-infiltrating Mφ (F4/80+) [5] | response rates in advanced RCC patients (advanced RCC)
1 | IFN-alpha: recombinant human IFN-alpha (IFN-alpha-2b, Schering Plough) | suppressed | 33 | 19 | 39 | almost completely eliminated | 58 | 79 | 16 | 15 | approximately 40 % of control | approximately 70 % of control | survived until the end of the study |  |  | 
2 | IL-2: recombinant IL-2 (Proleukin, Chiron) |  |  |  |  |  |  |  |  |  |  |  |  | failed to inhibit | comparable levels | 10-20%
